{"source": "patent US7195901B1", "about": "(priority 2004, dated 2007)", "test_system": "RcDGAT", "test": "DGAT substrate specificity assay, microsomes of yeast expressing […], 14C-oleoyl-CoA incorporation into TAG", "format": "biochemical, Ricinus communis"}
{"substance": "1,2-diricinolein", "values": [{"measurement": "increase in amount of TAG product (RRO, OOO, PoPoO) compared to that without exogenous DAG", "setting": "0.25 mM DAG added, 15 min at 30° C, RRO from diricinolein, OOO from diolein, PoPoO from dipalmitolein", "value": 318, "unit": "pmol/mg/min"}, {"measurement": "absolute incorporation of oleate into TAG product (RRO, OOO, PoPoO)", "setting": "1 mM of DAG, endogenous diolein and dipalmitolein present in the yeast cells", "value": 456, "unit": "pmol/mg/min"}]}
